Results: the kinase profiling compilation of Christmann-Franck et al. (2016)

Chains of the proteins cited; added tags and fusions are not shown. Lines headed by an entry give the natural chain unless they say otherwise; changes in a name come on top.
ARAF (human), P10398, UniProt P10398, whole entry Y301D/Y302D, looked up: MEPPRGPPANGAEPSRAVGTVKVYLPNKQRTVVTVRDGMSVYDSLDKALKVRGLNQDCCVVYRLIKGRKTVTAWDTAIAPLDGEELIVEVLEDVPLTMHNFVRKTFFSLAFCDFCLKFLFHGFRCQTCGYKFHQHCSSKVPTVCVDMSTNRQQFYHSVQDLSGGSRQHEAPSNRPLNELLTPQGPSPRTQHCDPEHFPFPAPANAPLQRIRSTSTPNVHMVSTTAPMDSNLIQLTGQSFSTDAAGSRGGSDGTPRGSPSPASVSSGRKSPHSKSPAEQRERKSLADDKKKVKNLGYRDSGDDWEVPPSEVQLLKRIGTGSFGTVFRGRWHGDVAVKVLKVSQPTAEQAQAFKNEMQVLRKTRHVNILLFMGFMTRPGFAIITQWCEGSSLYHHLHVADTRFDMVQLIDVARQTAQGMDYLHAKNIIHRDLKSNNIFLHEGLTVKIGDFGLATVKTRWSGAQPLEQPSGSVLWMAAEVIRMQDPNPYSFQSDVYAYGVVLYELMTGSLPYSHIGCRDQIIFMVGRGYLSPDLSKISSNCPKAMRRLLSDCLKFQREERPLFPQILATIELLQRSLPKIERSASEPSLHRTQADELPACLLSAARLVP
UniProt Q15418, whole entry, looked up: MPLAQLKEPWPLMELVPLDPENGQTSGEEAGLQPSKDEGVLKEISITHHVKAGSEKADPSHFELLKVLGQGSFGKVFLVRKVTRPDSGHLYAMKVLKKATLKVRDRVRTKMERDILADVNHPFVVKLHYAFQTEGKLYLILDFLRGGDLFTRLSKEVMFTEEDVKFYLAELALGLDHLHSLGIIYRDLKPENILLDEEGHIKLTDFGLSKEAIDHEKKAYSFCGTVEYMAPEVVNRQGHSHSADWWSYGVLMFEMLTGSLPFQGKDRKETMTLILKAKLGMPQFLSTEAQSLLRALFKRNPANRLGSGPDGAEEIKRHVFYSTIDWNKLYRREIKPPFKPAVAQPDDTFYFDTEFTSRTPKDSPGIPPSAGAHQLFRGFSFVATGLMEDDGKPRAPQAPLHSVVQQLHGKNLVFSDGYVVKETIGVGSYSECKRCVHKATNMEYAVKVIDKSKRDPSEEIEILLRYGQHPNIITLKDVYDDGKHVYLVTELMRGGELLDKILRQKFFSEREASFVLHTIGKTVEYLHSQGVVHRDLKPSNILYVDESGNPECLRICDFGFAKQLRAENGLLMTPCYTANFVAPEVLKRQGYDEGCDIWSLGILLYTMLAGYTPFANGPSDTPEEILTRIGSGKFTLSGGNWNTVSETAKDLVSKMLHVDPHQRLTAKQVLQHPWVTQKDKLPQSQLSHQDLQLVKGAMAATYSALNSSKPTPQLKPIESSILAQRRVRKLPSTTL
UniProt Q13237: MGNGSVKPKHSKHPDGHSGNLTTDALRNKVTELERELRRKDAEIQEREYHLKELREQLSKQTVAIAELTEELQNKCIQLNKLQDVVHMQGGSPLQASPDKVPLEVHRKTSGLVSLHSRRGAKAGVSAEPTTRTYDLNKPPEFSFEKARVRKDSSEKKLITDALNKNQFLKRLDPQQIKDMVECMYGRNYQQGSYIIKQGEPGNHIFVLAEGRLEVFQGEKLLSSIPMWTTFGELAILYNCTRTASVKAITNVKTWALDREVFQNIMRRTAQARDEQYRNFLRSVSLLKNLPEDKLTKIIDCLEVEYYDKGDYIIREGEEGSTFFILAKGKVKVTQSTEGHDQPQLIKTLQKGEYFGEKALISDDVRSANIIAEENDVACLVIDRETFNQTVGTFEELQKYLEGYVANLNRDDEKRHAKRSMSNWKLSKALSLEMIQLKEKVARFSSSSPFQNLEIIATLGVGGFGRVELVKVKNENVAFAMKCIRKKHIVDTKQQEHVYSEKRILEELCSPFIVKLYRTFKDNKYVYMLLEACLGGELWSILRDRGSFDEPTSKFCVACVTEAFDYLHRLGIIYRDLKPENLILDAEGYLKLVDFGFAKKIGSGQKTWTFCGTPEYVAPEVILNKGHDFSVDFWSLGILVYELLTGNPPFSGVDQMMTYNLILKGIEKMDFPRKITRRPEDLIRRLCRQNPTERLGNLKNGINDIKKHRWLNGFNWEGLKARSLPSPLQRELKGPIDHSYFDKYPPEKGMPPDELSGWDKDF

Assays:
Assay in all cases: radiometric filter-binding kinase assay, Kinase HotSpot
Details in all cases: compound 0.5 µM; ATP 10 µM
[1] = system: ARAF (human), P10398 [Y301D/Y302D]
RPS6KA1 KD1 KD2 (human) = RPS6KA1 KD1 KD2 (human) (UniProt Q15418)
PRKG2 (human) = PRKG2 (human) (UniProt Q13237)

CO[C@H]1[C@@H](OC)C[C@H](C)[C@@H](OC)C2=CC(=O)C=C(NC(=O)/C(C)=C\C=C/[C@H](OC)[C@@H](OC(N)=O)/C(C)=C\[C@@H]1C)C2=O was tested. Which residual activity [1] did it give?
The residual activity was 92.4%.

For COc1cc(OC)c(/C=C2\C(=O)Nc3ccccc32)c(OC)c1, which residual activity [1] is on record?
Its residual activity is 96.7%.

Which residual activity [1] does the source give for O=C1c2ccccc2-[n+]2ccc3c([nH]c4ccccc43)c21 here?
Its residual activity is 80.8%.

With COC(=O)[C@]1(O)C[C@@H]2O[C@@]1(C)n1c3ccccc3c3c4c(c5c6ccccc6n2c5c31)C(=O)NC4 as the compound, how does the residual activity (RPS6KA1 KD1 KD2 (human)) read?
Its residual activity is -5.99%.

And the residual activity (PRKG2 (human))?
Its residual activity is -4.02%.
